Source: article PMC4512758 (Analytical biochemistry, 2015)

Protein sequences, listed by entry. Tags and fused reporters are not part of them.
UniProt P30536, whole entry: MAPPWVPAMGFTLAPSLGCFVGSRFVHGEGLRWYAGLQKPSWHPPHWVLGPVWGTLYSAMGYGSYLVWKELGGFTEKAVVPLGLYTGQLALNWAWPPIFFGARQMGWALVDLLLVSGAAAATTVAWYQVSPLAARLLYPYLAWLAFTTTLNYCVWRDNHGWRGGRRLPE

What was measured:
[1] = target: Translocator protein (TSPO) (Homo sapiens, UniProt P30536); assay: Frontal affinity chromatography; format: binding
[2] = target: DIPY binding site of TSPO (Homo sapiens, UniProt P30536); assay: Frontal displacement on MMAC-

CCC(C)N(C)C(=O)c1cc2ccccc2c(-c2ccccc2Cl)n1 (centres unmarked) [PK, PK-11195]
Kd [1]: 8.6 nM | Ki [2]: 1140 nM
